The values below come from PMC10606955 (Chemico-biological interactions, 2023).

Values joined by “and” are separate entries in the source; they are usually repeats but may differ in a detail not shown here. Equal values may be shown once.

The target in assay [1] is T1, carboxylesterase 1 (CES1) (Homo sapiens, UniProt P23141).
T1 sequence (P23141 18-567): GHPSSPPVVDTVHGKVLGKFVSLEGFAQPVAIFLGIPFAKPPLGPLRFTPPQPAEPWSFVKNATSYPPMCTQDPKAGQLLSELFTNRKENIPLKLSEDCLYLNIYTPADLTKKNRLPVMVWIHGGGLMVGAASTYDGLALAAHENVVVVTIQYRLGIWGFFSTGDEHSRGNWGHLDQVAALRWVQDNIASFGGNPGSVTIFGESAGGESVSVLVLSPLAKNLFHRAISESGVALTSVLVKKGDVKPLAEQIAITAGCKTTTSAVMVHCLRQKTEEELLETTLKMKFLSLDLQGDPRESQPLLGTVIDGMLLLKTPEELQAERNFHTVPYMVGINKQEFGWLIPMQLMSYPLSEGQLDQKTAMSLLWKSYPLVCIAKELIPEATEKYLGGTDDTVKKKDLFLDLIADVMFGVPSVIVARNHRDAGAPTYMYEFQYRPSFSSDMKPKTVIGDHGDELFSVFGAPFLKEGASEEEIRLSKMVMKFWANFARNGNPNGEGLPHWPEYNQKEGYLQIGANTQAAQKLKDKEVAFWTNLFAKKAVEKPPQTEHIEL
In words: Concentration response curves for inhibition of CES1. It counts as biochemical. The settings on record: read-out: IC50 (kratom alkaloids); alkaloid 0–128 μM, 200 μM OST, 1% DMSO, CES1 S9. The procedure, abridged: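 CES1 S9 (supernatant, 9000g, from sonicated Flp-In-293 cells expressing wild-type CES1) at 20 μg/mL in 50 mM phosphate buffer. Test compound at 0–128 μM, or extracts at 0–128 μg/mL, in 1% DMSO with 200 μM oseltamivir, 15 min at 37°C. Stopped with 4 volumes acetonitrile containing ritalinic acid internal standard. Oseltamivir carboxylate measured by LC-MS/MS and expressed relative to DMSO control; IC50 fitted by modified Hill equation.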

Assay [2] has as its target T1, carboxylesterase 1 (CES1). In words: Time-dependent inhibition of CES1. It counts as biochemical. As to conditions: mean ± S.E., 200 μM OST.

As to corynantheidine, the half-inhibitory concentration (IC50) in assay [1] was 32.3 µM and < 50 µM; in assay [2] (No preincubation), 32.3 ± 3.64 µM; in assay [2] (Preincubation 30 min with CES1 S9) it was 32 ± 5.37 µM.
